Results from patent publication US7030093B2, “Antibiotic coating for porous bodies and method for its production as well as its use” (HERAEUS Kulzer GmbH & Co. KG, priority 2002, dated 2006).

Assay: Release of the antibiotic from the salts in an aqueous environment (finding in words)
Assay type: physicochemical
Conditions: method not given

Release of the underlying antibiotic in an aqueous environment, in a delayed fashion:
kanamycin dodecyl sulfate
kanamycin myristate
kanamycin laurate
